Data published in PubChem BioAssay AID875 (National Center for Advancing Translational Sciences (NCATS), 2007).
This is a selection; strong and weak results do not stand in their true shares. Calls of active or inactive are those of the source. The call rests on the fitted dose curve; in most records, active means well fitted inhibition curve with a large enough effect; inconclusive means small, poorly fitted or top-dose-only effect; inactive means no such curve, though single readings can be large or run the other way.
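Further: plate controls were peptide without protein for full effect.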

Amino acid sequences for entries named in this document (tags omitted).
UniProt P38398, whole entry: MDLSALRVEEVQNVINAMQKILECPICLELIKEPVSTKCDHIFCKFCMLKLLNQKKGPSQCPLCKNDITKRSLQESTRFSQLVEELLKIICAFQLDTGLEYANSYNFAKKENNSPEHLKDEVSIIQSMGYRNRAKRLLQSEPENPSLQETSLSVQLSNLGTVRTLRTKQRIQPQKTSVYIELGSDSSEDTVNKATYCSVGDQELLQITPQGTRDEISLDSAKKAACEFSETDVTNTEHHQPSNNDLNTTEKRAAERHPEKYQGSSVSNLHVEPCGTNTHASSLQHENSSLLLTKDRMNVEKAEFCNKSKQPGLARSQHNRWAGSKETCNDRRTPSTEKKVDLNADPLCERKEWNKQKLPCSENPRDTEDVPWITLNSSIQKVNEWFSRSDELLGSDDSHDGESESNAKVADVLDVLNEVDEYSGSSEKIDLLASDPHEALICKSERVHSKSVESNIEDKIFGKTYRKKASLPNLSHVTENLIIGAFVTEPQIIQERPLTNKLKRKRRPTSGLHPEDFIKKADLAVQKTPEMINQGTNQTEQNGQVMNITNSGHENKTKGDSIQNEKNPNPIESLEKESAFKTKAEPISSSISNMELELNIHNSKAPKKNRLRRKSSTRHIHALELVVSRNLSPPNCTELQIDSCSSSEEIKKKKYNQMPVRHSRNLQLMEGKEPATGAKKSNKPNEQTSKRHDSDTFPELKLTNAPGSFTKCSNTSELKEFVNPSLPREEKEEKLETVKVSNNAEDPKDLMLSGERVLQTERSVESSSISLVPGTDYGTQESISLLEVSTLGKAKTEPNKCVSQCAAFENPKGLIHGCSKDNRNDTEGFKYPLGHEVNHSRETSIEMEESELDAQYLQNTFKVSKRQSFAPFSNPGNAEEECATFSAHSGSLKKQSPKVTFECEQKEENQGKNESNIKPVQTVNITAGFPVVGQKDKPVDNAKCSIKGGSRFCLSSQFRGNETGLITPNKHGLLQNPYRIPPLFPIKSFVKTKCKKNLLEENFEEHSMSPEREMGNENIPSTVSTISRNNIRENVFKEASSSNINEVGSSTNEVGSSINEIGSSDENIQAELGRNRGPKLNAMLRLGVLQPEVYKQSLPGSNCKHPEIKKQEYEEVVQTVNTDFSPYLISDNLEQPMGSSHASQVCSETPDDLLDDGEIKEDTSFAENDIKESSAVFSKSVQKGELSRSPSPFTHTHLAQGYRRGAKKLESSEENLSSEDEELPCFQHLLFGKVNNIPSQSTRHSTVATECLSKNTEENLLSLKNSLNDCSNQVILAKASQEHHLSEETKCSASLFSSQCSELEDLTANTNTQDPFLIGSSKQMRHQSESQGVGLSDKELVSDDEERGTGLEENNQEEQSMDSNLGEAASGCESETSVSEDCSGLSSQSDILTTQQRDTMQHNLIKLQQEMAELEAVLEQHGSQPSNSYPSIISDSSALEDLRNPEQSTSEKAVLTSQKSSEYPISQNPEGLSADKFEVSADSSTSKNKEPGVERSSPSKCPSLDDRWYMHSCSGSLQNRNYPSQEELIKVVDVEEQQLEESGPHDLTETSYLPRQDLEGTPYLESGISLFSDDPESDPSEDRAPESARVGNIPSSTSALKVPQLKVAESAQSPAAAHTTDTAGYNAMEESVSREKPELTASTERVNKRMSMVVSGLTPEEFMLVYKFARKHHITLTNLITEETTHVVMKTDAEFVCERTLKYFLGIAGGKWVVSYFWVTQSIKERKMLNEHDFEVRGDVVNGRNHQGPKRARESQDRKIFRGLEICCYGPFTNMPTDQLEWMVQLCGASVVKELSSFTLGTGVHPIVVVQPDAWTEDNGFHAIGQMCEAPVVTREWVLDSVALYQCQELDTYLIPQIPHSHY

These compounds were tested against Breast cancer type 1 susceptibility protein (Homo sapiens) (UniProt P38398) (assay: qHTS Assay for Inhibitors of BRCT-Phosphoprotein Interaction (Green Fluorophore)). Conditions: BRCA1 BRCT-phosphopeptide binding, green fluorescence polarization; at 76.9 µM (top of the series) unless noted.
Procedure: NIH Molecular Libraries Screening Centers Network [MLSCN]
NIH Chemical Genomics Center [NCGC]
PI Name: Natarajan, Amarnath; University of Texas
A complex of BRCT (C-terminal portion of BRCA1, MW ~35 kDa, His-tagged) and fluorescently labeled pBACH1 phosphorylated 10 aa peptide fragment of BACH1, a helicase implicated in DNA repair, is incubated with library members. Inhibitors of BRCT-pBACH1 binding are detected by a decrease in the fluorescence polarization (FP) of the fluorophore. In order to minimize the effect of fluorescence artifacts and to increase the overall robustness of the screen, the compound library members were incubated in separate reactions with fluorescein labeled probe-protein complexes. Protein and labeled probes were supplied by Dr. Amarnath Natarajan, Department of Pharmacology and Toxicology, University of Texas Medical Branch Galveston, TX.
Assay Buffer: 16mM Na2HPO4, 4 mM NaH2PO4, 150 mM NaCl, 1 mM EDTA, 1 mM DTT, 0.02% NaN3, and 0.01% Tween 20 at pH 7.3.
100 nM labeled decapeptide/250 nM protein in columns 1, 2, 5 - 48. Titration of unlabeled decapeptide control (from 10 mM, then 1:2 dilution in duplicate) pin-transferred to column 2, rows 1 to 16. Column 1 is neutral.
Three uL of reagents were dispensed to 1536-well Greiner black solid-bottom plates. Compounds and controls (23 nL) were transferred
via Kalypsys PinTool. The plates were incubated for 12 min at room temperature, and then read on ViewLux (Perkin-Elmer) High throughput CCD imager using FITC for the fluorescein-labeled decapeptide probe polarization filter sets. During dispense, reagent bottles were kept submerged into 4 deg C water bath and all liquid lines were covered with aluminum foil to minimize probe and protein degradation. All screening operations were performed on a Kalypsys robotic system (Kalypsys, Inc., San Diego, CA) containing one RX-130 and two RX-90 anthropomorphic robotic arms. The timing and order of assay plates passing through the screening system were adjusted such that each compound library plate was assayed against the fluorescein- and rhodamine-labeled assay systems at immediately adjacent time points.
In the case of `CP(=O)(Nc1ccccc1F)Oc1ccccc1` (configuration not stated), the activity change, negative = inhibition was inactive: -1.36%. `Cc1cccc([N+](=O)[O-])c1[N+](=O)[O-]` was tested, and the activity change, negative = inhibition was inactive: -2.35%. For `CCC(C)(OO)OOC(C)(CC)OO` (configuration not stated), the activity change, negative = inhibition was inactive: -0.367%. For `CN(C)CCOC(=O)C(O)(c1ccccc1)C1CCCCC1` (configuration not stated), the activity change, negative = inhibition was inactive: -1.54%. `Cc1ccc([N+](=O)[O-])c([N+](=O)[O-])c1` was tested, and the activity change, negative = inhibition was inactive: -0.806%. In the case of `Cc1c([N+](=O)[O-])cccc1[N+](=O)[O-]`, the activity change, negative = inhibition was inactive: -7.72%. With `CCOP(C)(=S)SCC(=O)NC(C)(CC)C(=O)O` (configuration not stated) the activity change, negative = inhibition was inactive: -3.36%. With `CCOP(=O)(CC)OCC` the activity change, negative = inhibition was inactive: 0.0277%. `[NH4+].[O-][Cl+3]([O-])([O-])[O-]` was tested, and the activity change, negative = inhibition was inactive: 4.57%. `CCN(CCCl)Cc1ccccc1C` was tested, and the activity change, negative = inhibition was inactive: -2.44%. With `Cc1ccccc1NP(C)(=O)Nc1ccccc1C` the activity change, negative = inhibition was inactive: -1.39%. For `NNC(NN)NN.n1nc(-c2nn[nH]n2)n[nH]1`, the activity change, negative = inhibition was inactive: 0.63% [at 15.4 µM]. With `CP(=O)(Nc1ccc2c(c1)OCCO2)Oc1ccccc1` (configuration not stated) the activity change, negative = inhibition was inactive: -2.13%. In the case of `OCCSCCO`, the activity change, negative = inhibition was inactive: 0.82% [at 3.08 µM]. In the case of `COc1ccccc1OP(C)(=O)Nc1c(C)n(C)n(-c2ccccc2)c1=O` (configuration not stated), the activity change, negative = inhibition was inactive: -1.18%. With `CP(=O)(Oc1ccccc1)N1CCOC1=O` (configuration not stated) the activity change, negative = inhibition was inactive: -2.56%. With `N#[O+].[C-]#N.[C-]#N.[C-]#N.[C-]#N.[C-]#N.[Fe+2].[Na+].[Na+]` the activity change, negative = inhibition was inactive: -1.74%. For `C/C1=C2N=C(/C=C3N=C(/C(C)=C4\[N-][C@@](C)([C@H]5N=C1[C@@](C)(CCC(=O)NC[C@H](C)OP(=O)([O-])O[C@@H]1[C@H](O)[C@H](n6cnc7cc(C)c(C)cc76)O[C@@H]1CO)[C@@H]5CC(N)=O)[C@](C)(CC(N)=O)[C@H]4CCC(N)=O)[C@@](C)(CC(N)=O)[C@@H]\3CCC(N)=O)C(C)(C)[C@@H]/2CCC(N)=O.[C-]#N.[Co+3]`, the activity change, negative = inhibition was inactive: -1.46% [at 34.4 µM]. In the case of `COc1ccccc1OP(C)(=O)Nc1ccc(C)c(C)c1` (configuration not stated), the activity change, negative = inhibition was inactive: -1.29%. In the case of `Cc1nc2ccc3ccccc3c2o1.O=[N+]([O-])c1cc([N+](=O)[O-])c(O)c([N+](=O)[O-])c1`, the activity change, negative = inhibition was inactive: -5.89%. `CP(=O)(Nc1ccccn1)Oc1ccccc1` (configuration not stated) was tested, and the activity change, negative = inhibition was inactive: -0.69%. In the case of `O=[N+]([O-])[O-].[NH4+]`, the activity change, negative = inhibition was inactive: 0.0639%. For `Cc1ccc(NP(C)(=O)Oc2ccccc2)c(C)c1` (configuration not stated), the activity change, negative = inhibition was inactive: -0.539%. In the case of `COc1ccccc1OP(C)(=O)Nc1ccc(C)cc1` (configuration not stated), the activity change, negative = inhibition was inactive: 1.67%. For `N1=C(c2nnc(-c3nn[nH]n3)nn2)NNN1`, the activity change, negative = inhibition was inactive: -0.372% [at 15.4 µM]. With `CP(=S)(Nn1cnnc1)Oc1ccccc1` (configuration not stated) the activity change, negative = inhibition was inactive: -1.71%. In the case of `CP(=O)(NC(=O)Nc1ccccc1)Oc1ccccc1` (configuration not stated), the activity change, negative = inhibition was inactive: -2.36%. For `CCOP(C)(=S)SCC(=O)NC(C)C(=O)O` (configuration not stated), the activity change, negative = inhibition was inactive: 0.625%. For `Cc1nc2ccc3ccccc3c2s1.O=[N+]([O-])c1cc([N+](=O)[O-])c(O)c([N+](=O)[O-])c1`, the activity change, negative = inhibition was inactive: -0.0423%. In the case of `O=[N+]([O-])c1cccc([N+](=O)[O-])c1`, the activity change, negative = inhibition was inactive: -0.669%. `Cc1ccc([N+](=O)[O-])cc1[N+](=O)[O-]` was tested, and the activity change, negative = inhibition was inactive: -0.778%. With `Cc1ccc(C)c(NP(C)(=O)Oc2ccccc2)c1` (configuration not stated) the activity change, negative = inhibition was inactive: -0.368%.
